{"source": "paper PMC3815326", "about": "(Microbial biotechnology, 2012)", "origin": "cited, not measured here", "test_system": "TodS", "conditions": "agonist / antagonist classification, ref Busch et al., 2007, cited from earlier work", "note": "Like-named read-outs stand apart in the source and are kept apart here."}
{"smiles": "Cc1ccccc1", "note": "[Toluene]", "values": [{"measurement": "Effect on TodS", "result": "Agonist"}, {"measurement": "Effect on TodS", "setting": "listed as toluene", "result": "Agonists"}]}
